Measured values from PubChem BioAssay AID588453 (National Center for Advancing Translational Sciences (NCATS), 2011).
The entries are a selection whose mix differs from that of the whole data set. Results filed as inconclusive are left out. Activity calls are given as the source filed them. The call rests on the fitted dose curve; in most records, active means well fitted inhibition curve with a large enough effect; inconclusive means small, poorly fitted or top-dose-only effect; inactive means no such curve, though single readings can be large or run the other way.

Amino acid sequences for entries named in this document (tags omitted).
UniProt O89049, whole entry: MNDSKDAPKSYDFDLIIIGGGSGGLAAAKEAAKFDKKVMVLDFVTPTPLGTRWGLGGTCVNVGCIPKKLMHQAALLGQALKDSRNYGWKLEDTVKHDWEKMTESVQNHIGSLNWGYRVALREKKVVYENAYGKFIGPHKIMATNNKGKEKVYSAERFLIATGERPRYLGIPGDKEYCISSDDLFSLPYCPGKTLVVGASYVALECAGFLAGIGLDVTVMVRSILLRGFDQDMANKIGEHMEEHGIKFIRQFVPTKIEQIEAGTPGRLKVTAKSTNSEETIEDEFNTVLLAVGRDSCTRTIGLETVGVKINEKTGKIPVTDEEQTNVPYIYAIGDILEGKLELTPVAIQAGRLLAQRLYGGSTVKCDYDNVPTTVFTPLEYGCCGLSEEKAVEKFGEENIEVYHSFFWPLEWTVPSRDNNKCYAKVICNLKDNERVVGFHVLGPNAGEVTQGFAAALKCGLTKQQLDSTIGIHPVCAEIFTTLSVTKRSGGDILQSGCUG

molecular target: Thioredoxin reductase 1, cytoplasmic (Rattus norvegicus) (UniProt O89049); experiment: qHTS Assay for Inhibitors of Mammalian Selenoprotein Thioredoxin Reductase 1 (TrxR1): qHTS; settings: recombinant rTrxR1, NADPH fluorescence consumption, selenite substrate; at 114 µM (top of the series); further: nearly all actives have a fitted effect of over 65% in size
On the % scale 0 is the no-effect control and ±100 the full control effect.

SMILES | activity change, negative = inhibition
CCC(=O)N(c1ccccc1)C1(COC)CCN(CCn2nnn(CC)c2=O)CC1 | inactive: 28.6%
CCC(=O)N(c1ccccc1)C1(COC)CCN(CCc2cccs2)CC1 | inactive: 20.3%
